Assay results published in ChEMBL document CHEMBL1135445, “4'-Arylpyrrolomorphinans: effect of a pyrrolo-N-benzyl substituent in enhancing delta-opioid antagonist activity” (J Med Chem, 2002).

Sequences of proteins named here, by UniProt entry; tags and fusion partners are left off. A change or cut given only in a name is not applied to a line headed by its entry.
UniProt P41145: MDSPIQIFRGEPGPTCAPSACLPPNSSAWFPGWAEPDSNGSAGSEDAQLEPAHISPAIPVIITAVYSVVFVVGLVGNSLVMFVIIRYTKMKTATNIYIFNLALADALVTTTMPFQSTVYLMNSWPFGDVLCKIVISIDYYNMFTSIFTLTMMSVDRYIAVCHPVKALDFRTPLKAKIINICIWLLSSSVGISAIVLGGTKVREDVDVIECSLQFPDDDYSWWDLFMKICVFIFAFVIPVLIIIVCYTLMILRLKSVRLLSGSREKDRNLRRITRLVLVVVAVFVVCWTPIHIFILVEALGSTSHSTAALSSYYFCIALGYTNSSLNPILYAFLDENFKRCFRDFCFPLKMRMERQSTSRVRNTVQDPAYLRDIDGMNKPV

Molecular target: Kappa-type opioid receptor (Homo sapiens, UniProt P41145)
Test: Binding affinity towards recombinant human Opioid receptor kappa 1 transfected in to CHO cells for the displacement of [3H]U-69593
Format: cell-based
How it was run: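 Radioligand displacement (Ki) at cloned human opioid receptors expressed in CHO cells. Radioligands: [3H]DAMGO for mu, [3H]Cl-DPDPE for delta, [3H]U69593 for kappa.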

## Oc1ccc2c3c1O[C@H]1c4[nH]c5ccccc5c4C[C@@]4(O)[C@@H](C2)N(CC2CC2)CC[C@]314 [NALTRINDOLE]
  Ki: 10.1 nM
